Drawing on BindingDB's records for doi:10.1021/acschembio.6b00217 (Broad Institute, 2016), this text covers IC50 for one molecule.

By UniProt entry, the sequences of proteins in these tests, tags left out. Where a name states a change or a piece, a line headed by the entry shows the natural chain unless it says otherwise.
UniProt Q9H0K1: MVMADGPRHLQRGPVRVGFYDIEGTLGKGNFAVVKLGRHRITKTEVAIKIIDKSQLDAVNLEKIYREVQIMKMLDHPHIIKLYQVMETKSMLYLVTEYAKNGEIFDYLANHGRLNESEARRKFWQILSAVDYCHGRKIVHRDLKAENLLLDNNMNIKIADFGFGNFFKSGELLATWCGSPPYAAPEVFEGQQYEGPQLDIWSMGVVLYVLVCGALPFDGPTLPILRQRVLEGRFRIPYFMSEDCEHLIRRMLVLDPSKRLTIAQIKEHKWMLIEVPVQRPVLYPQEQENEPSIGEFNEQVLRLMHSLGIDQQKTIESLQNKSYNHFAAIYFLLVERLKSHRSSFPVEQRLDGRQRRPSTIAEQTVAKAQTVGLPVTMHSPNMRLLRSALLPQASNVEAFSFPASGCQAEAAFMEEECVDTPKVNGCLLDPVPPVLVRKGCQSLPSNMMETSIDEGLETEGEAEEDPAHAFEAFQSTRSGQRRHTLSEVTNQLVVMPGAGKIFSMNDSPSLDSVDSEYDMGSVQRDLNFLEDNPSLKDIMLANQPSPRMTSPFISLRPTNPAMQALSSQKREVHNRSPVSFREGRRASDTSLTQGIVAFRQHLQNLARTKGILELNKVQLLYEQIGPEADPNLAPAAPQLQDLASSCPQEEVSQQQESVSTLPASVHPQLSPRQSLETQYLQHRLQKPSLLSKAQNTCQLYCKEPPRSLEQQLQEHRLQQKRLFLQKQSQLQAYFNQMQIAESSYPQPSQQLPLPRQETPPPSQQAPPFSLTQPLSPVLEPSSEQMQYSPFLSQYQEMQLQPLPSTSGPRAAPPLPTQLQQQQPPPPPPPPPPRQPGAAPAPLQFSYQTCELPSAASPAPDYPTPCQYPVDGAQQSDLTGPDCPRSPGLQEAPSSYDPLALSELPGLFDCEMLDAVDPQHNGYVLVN

The test has as its target Serine/threonine-protein kinase SIK2 (Homo sapiens, UniProt Q9H0K1). The experiment in a line: Caliper-based Mobility Shift Assay. The settings on record: pH 8. The protocol:
IC50‘s for HG-9-91-01 derivatives were measured by Caliper-based mobility shift assay (PerkinElmer). […] Reactions were quenched by adding 20 mM EDTA (pH 8) after 1 hr, and percentage of substrate conversion was measured by LabChip EZ Reader II (PerkinElmer).

Usually IC50 stands for the concentration that inhibits the measured activity by half. Turning to `COc1ccc(N2C(=O)N(c3c(C)cccc3Cl)Cc3cnc(Nc4ccc(N5CCN(C)CC5)cc4)nc32)c(OC)c1` [HG-9-91-01 derivative, 2], the IC50 is 19.5 nM.
